Data on two molecules can be found in PubChem BioAssay AID1458 (National Center for Advancing Translational Sciences (NCATS), 2008).

Several values for one entry are separate records, joined by “and”; a condition that tells them apart may be missing. Equal entries are not always repeated. This is a selection; strong and weak results do not stand in their true shares. Results filed as inconclusive are left out. Activity calls are given as the source filed them. Calls follow the shape of the dose curve; as a rule, active = well fitted activation curve with a large enough effect; inconclusive = small, poorly fitted or top-dose-only effect; inactive = no such curve, though single readings can be large or run the other way.

A short description of this experiment: qHTS Assay for Enhancers of SMN2 Splice Variant Expression. Also: % of control where 0% means no effect; nearly all actives have a fitted effect of over 55% in size. Particulars: HEK293 SMN2-luciferase splicing reporter, luminescence, 30-36 h; at 46.1 µM (top of the series). (In general: In qHTS, concentration-response curves come from the screen itself.)
As for `CN(CCCl)CCCl`, the activity change, positive = activation is inactive: -1.97% and inactive: -5.59%.
With `O=[N+]([O-])C(Cl)(Cl)Cl`, the activity change, positive = activation was inactive: 6.86%.
